Consider 1 compound from patent US20200129491A1, “METHODS OF TREATING BRAIN TUMORS USING COMBINATION THERAPY” (AGIOS PHARMACEUTICALS, INC., priority 2017, published 2020).

The test system of the assay is orthotopic human neurosphere-derived grade III glioma cells carrying an IDH1 R132H mutation (TS603 cell line). The experiment in a line: Ivosidenib and radiation therapy in orthotopic IDH1m glioma mouse model, survival end point (Example 2). The format is in vivo, mice.

As to `N#Cc1ccnc(N2C(=O)CC[C@H]2C(=O)N(c2cncc(F)c2)[C@H](C(=O)NC2CC(F)(F)C2)c2ccccc2Cl)c1` [Ivosidenib, (S)—N—((S)-1-(2-Chlorophenyl)-2-(3,3-difluorocyclobutylamino)-2-oxoethyl)-1-(4-cyanopyridin-2-yl)-N-(5-fluoropyridin-3-yl)-5-oxopyrrolidine-2-carboxamide], the “Antagonism of the combination of Ivosidenib and radiation therapy in vivo” value (Example 2, survival) was “no antagonism”. In addition, the “% ILS (% increase in lifespan)” value (Group 4: Ivosidenib + Focal Radiation (simultaneous treatment), versus median control lifespan (21 days)) is 114%. For the same compound, the “Increase in lifespan compared to the group receiving Focal Radiation (Group 2)” value (combination therapy (Groups 4 and 5)) is “comparable increases in lifespan”. Moreover, the “Increase in lifespan versus control” value (combination therapy involving Ivosidenib and Focal Radiation (Groups 4 and 5)) was “substantial increases in lifespan”.
